# Only a part is listed here, and it is no random draw. Activity calls are given as the source filed them. No stated cut-off is given here; in the data, active means inhibition above about 34%; inactive means the rest.
# Protein sequences, listed by entry. Tags and fused reporters are not part of them. Lines headed by an entry give the natural chain unless they say otherwise; changes in a name come on top.
# UniProt Q8NCG7: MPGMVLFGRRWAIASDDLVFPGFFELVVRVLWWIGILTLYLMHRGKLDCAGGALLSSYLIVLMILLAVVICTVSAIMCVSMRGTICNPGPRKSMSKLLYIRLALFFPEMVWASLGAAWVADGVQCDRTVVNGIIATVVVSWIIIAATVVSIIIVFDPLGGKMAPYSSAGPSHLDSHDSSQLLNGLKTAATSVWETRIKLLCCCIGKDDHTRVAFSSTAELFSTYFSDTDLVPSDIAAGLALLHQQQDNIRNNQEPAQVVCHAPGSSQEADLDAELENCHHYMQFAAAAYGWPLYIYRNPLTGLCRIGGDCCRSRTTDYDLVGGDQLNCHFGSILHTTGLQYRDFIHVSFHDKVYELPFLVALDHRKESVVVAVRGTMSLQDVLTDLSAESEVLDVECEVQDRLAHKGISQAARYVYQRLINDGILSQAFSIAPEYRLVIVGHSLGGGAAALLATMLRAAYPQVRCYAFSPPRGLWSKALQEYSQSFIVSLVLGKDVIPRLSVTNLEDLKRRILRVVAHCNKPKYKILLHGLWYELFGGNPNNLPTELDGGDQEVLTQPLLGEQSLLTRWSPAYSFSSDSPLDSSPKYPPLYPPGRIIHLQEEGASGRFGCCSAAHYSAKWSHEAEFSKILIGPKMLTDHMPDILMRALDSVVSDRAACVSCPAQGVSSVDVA
# Molecular target: Diacylglycerol lipase-beta (Homo sapiens) (UniProt Q8NCG7)
# Assay: inhibition of human DAGLB hydrolase activity – biochemical, fluorescence, HTS, primary screen (AID 504411);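 further: 0% = enzyme with vehicle and 100% = wells lacking enzyme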
# Details: HEK293T DAGLB membrane lysate, EnzChek fluorogenic substrate; at 5.17 µM; active compounds read high
row,SMILES,inhibition
1,O=[N+]([O-])c1ncn(CCn2ncnc2[N+](=O)[O-])n1,inactive: 0.47%
2,CC(C)(C)C(=O)NC(Sc1ccncn1)C(Cl)(Cl)Cl (configuration not stated),inactive: 1.45%
3,O=C(O)CNc1ccc([As](=O)(O)O)cc1,inactive: -1.06%
4,O=[N+]([O-])c1cccc(NC2=NCC(CBr)S2)c1 (configuration not stated),inactive: 0.1%
5,COC(=O)C1(C)COP(=O)(Nc2ccccc2)OC1 (configuration not stated),inactive: -0.66%
6,O=P1(N(CCCl)CCCl)OCCCS1 (configuration not stated),inactive: -0.2%
7,O=C(Nc1cc([As](=O)(O)O)ccc1O)c1ccccc1,inactive: 0.15%
8,CCN(/C(=N/P(=O)(N1CCOCC1)N1CCOCC1)N1CCOCC1)c1ccc(OC)cc1,inactive: 2.06%
9,Nc1ccc([As](=O)(O)c2ccc(N)cc2)cc1,inactive: 0.7%
10,C[N+]1=C2C=CC=CC=C2SC12C([N+](=O)[O-])=CC([N+](=O)[O-])=C[C-]2[N+](=O)[O-] (configuration not stated),inactive: 11.4%
11,c1cc(-c2nn[nH]n2)ccc1-c1nn[nH]n1,inactive: 0.67%
12,CC1CCN(C(=O)Oc2c(Cl)cc(Cl)c3cccnc23)CC1,inactive: -7.21%
13,CC(C)=N/N=C(\N)N[N+](=O)[O-],inactive: 0.29%
14,CC(C)c1nc(Nc2ccccc2)n(P(=O)(N(C)C)N(C)C)n1,inactive: -4.28%
15,CN(C)C(=O)OCCc1n(C)cc[n+]1C,inactive: -2.42%
16,COc1ccc(C2=NCC(CBr)S2)cc1 (configuration not stated),inactive: -2.15%
17,Cc1ccc(NP(=O)(Oc2ccccc2)Oc2ccccc2)nc1,inactive: -0.03%
18,O=[N+]([O-])c1cc([N+](=O)[O-])c(CCNc2ccccc2)c([N+](=O)[O-])c1,inactive: 14.4%
19,CCc1nc2c(n1)c1c(non1O)c1c2no[n+]1[O-],inactive: 0.32%
20,CC(=O)N1C2C3N(C(C)=O)C1C1N(C(C)=O)C(C(N1C(C)=O)N3C(C)=O)N2C(C)=O,inactive: -1.28%
21,O=[N+]([O-])c1cccc2n[nH]nc12,inactive: -1.05%
22,Oc1ccccc1CNc1ccccn1,inactive: -0.38%
23,O=C(NC(Sc1ccncn1)C(Cl)(Cl)Cl)c1ccccc1 (configuration not stated),inactive: 0.08%
24,CC(C)CC(=O)NC(Sc1ccc(Cl)cc1)C(Cl)(Cl)Cl (configuration not stated),inactive: -6.86%
25,Nc1cc(N)c2nonc2c1[N+](=O)[O-],inactive: -2.29%
26,CN(C(=O)Cc1ccc(Cl)c(Cl)c1)[C@H]1CCCC[C@H]1N1CCCC1,inactive: -0.41%

row,SMILES,inhibition
1,Cc1ccc(N/C(=N/P(=O)(N2CCOCC2)N2CCOCC2)N2CCOCC2)cc1,inactive: 1.81%
2,NC(=O)c1cc([N+](=O)[O-])cc([N+](=O)[O-])c1N,inactive: -0.11%
3,Clc1ccc(Cl)c(NC2=NCC(CBr)S2)c1 (configuration not stated),inactive: 0.94%
4,CN1CCCC(OC(=O)C(c2ccccc2)c2ccccc2)C1 (configuration not stated),inactive: 1.22%
5,COc1ccccc1OP(=O)(Nc1ccc(C)cn1)Oc1ccccc1OC,inactive: -1.21%
6,Nc1cccc2ccc([As](=O)(O)O)cc12,inactive: 0.21%
7,CCN(N=Nc1nonc1N)c1nonc1N,inactive: -0.27%
8,CN(C)P(=O)(N(C)C)n1c(Nc2ccccc2)nnc1-c1ccccc1,inactive: -6.89%
9,O=P(Nc1nc2ccc(Cl)cc2s1)(c1ccccc1)c1ccccc1,inactive: -3.41%
10,O=C(O)c1ccccc1[As](=O)(O)O,inactive: 0.5%
11,CC(=O)Nc1ccc([As](=O)(O)O)cc1,inactive: 1.12%
12,CCCC1OP(N)(=O)OCC1CC (configuration not stated),inactive: 0.19%
13,CCOP(=O)(Nc1ccccc1)OCC,inactive: 3.87%
14,Cc1cc(SC(NC(=O)c2ccc(F)cc2)C(Cl)(Cl)Cl)ncn1 (configuration not stated),inactive: 3.51%
15,CN(C(=O)Cc1ccc(Cl)c(Cl)c1)[C@H]1CCCC[C@@H]1N1CCCC1,inactive: 2.58%
16,Cc1ccc(NP(=O)(Oc2ccccc2F)Oc2ccccc2F)nc1,inactive: -0.97%
17,O=C(OC1CN2CCC1CC2)c1ccccc1 (configuration not stated),inactive: 0.15%
18,CCC(=O)N1C2C3N(C(=O)CC)C1C1N(C(=O)CC)C(C(N1C(=O)CC)N3C(=O)CC)N2C(=O)CC,inactive: -0.49%
19,COC(=O)c1cc2c(s1)N=C(c1ccccc1)N(C)P2(=O)N1CCOCC1 (configuration not stated),inactive: -1.49%
20,Cc1ccc(OP(=O)(Nc2ccccn2)Oc2ccc(C)cc2)cc1,inactive: -3.87%
21,CC(=O)NC(SC(=S)N(CC(C)C)CC(C)C)C(Cl)(Cl)Cl (configuration not stated),inactive: -2.31%
22,Cc1ccccc1OP(=O)(Nc1ccccn1)Oc1ccccc1C,inactive: 0.69%
23,CC(NC(=O)COC(=O)C(O)(c1ccccc1)c1ccccc1)c1ccccc1 (configuration not stated),inactive: 1.23%
24,CN(C)C(=O)Oc1noc2ccccc12,inactive: -1.18%
25,O=c1c2cc([N+](=O)[O-])ccc2[nH]c2c([N+](=O)[O-])cc([N+](=O)[O-])cc12,inactive: 11.4%
26,O=C(NC1CCS(=O)(=O)C1)NP(=S)(Oc1ccccc1)Oc1ccccc1 (configuration not stated),inactive: -4.96%

row,SMILES,inhibition
1,CCNC(=S)/N=C(\N)N[N+](=O)[O-],inactive: -1.04%
2,O=P1(N(CCCl)CCCl)OCCC2CCCCN21 (configuration not stated),inactive: 2.1%
3,Cc1ccccc1CN(C)C(=O)COC(=O)C(O)(c1ccccc1)c1ccccc1,inactive: -3.8%
4,C[C@@H]1C=CCP(=O)(Oc2ccccc2)O1 (some centres not stated),inactive: -1.52%
5,C[C@H]1OP(=O)(Oc2ccccc2)C[C@@H]2O[C@@H]21 (some centres not stated),inactive: 0.35%
6,N#C/C(=C\c1ccc(N(CCBr)CCBr)cc1)C(N)=O,inactive: 0.78%
7,CC(=O)c1ccc(N2CC2c2ccncc2)cc1 (configuration not stated),inactive: -1.97%
8,COC(=O)C1(C)COP(=O)(NCc2ccccc2)OC1 (configuration not stated),inactive: -1.86%
9,CC(=O)Nc1ccc([As](=O)(O)O)c(O)c1,inactive: 0.04%
10,CC(=O)Nc1ccc(Oc2c([N+](=O)[O-])cc([N+](=O)[O-])cc2[N+](=O)[O-])cc1,inactive: 5.48%
11,O=P1(Nc2nc3ccc(Cl)cc3s2)COc2ccccc2O1 (configuration not stated),inactive: 1.21%
12,CCOc1ccc(C2=NCC(CBr)S2)cc1 (configuration not stated),inactive: -0.01%
13,CC(C)(C)C(=O)NC(Sc1ccccc1)C(Cl)(Cl)Cl (configuration not stated),inactive: -3.97%
14,CCc1cc(O)c([N+](=O)[O-])c(C)c1[N+](=O)[O-],inactive: 2.85%
15,O=P(Nc1nccs1)(c1ccccc1)c1ccccc1,inactive: -0.45%
16,CC(C)C(=O)NC(Sc1ccccc1)C(Cl)(Cl)Cl (configuration not stated),inactive: 1.97%
17,c1nnnn1CCn1cnnn1,inactive: -0.71%
18,O=[As](O)(c1ccccc1)c1ccc(O)cc1,inactive: 0.06%
19,O=[N+]([O-])c1ncn(CCn2cnc([N+](=O)[O-])n2)n1,inactive: -0.27%
20,CC(=O)NC(SC(=S)N(C)C)C(Cl)(Cl)Cl (configuration not stated),inactive: -1.45%
21,O=[N+]([O-])c1ccc(O)c(/C=N/Nc2ccc([N+](=O)[O-])cc2[N+](=O)[O-])c1,inactive: 3.78%
22,O=C(OC1CN2CCC1CC2)c1cccc(Cl)c1 (configuration not stated),inactive: 0.2%
23,Nc1ccc([As](=O)(O)c2ccc([N+](=O)[O-])cc2)cc1,inactive: 1.03%
24,C(Cc1nn[nH]n1)Cc1nn[nH]n1,inactive: -1.33%
25,CN(C)C1(CNC(=O)c2ccc(Cl)c(S(N)(=O)=O)c2)CCCCC1,inactive: 0.46%
26,O=P(Nc1ccccn1)(c1ccc(Br)cc1)c1ccc(Br)cc1,inactive: 1.56%

row,SMILES,inhibition
1,COc1ccc(N)c([N+](=O)[O-])c1[N+](=O)[O-],inactive: 10.7%
2,O=P(Nc1nc2ccccc2s1)(c1ccccc1)c1ccccc1,inactive: 0.66%
3,C[C@H]1OP(=O)(Oc2ccccc2)[C@H](O)[C@H](O)[C@H]1N=[N+]=[N-] (some centres not stated),inactive: 0.02%
4,O=P1(Nc2ncccn2)COc2ccccc2OC1,inactive: 1.32%
5,Nc1cccc([As](=O)(O)c2ccccc2)c1,inactive: -0.24%
6,NS(=O)(=O)c1cccc(NC(=O)COC(=O)C(O)(c2ccccc2)c2ccccc2)c1,inactive: -1.95%
7,O=P1(Nc2ccc(Br)cn2)COc2ccccc2OC1,inactive: -2.42%
8,O=[As](O)(c1cccs1)c1cccs1,inactive: -3.36%
9,Cc1ccc(OCC(=O)OC2CN3CCC2CC3)cc1 (configuration not stated),inactive: -1.02%
10,Cc1nn(-c2ccccc2)c2c1P(=O)(N1CCOCC1)N(C)C(c1ccccc1)=N2 (configuration not stated),inactive: 2.07%
11,Cc1ccc(C(=O)OC2CN3CCC2CC3)cc1 (configuration not stated),inactive: -0.86%
12,CC1CCC(C(C)C)C(OP(=O)(Nc2ccccn2)c2ccccc2)C1 (configuration not stated),inactive: 1.22%
13,CN(C)C1(CNC(=O)c2ccc(S(C)(=O)=O)cc2)CCCCC1,inactive: -0.34%
14,O=C(/C=C/c1ccccc1)OC1CN2CCC1CC2 (configuration not stated),inactive: -1.62%
15,CCCC1OP(=O)(Nc2ccccc2)OCC1CC (configuration not stated),inactive: -2.69%
16,COc1ccccc1CNC(=O)COC(=O)C(O)(c1ccccc1)c1ccccc1,inactive: 1.42%
17,CN(C(=O)Cc1ccc(Cl)c(Cl)c1)[C@@H]1CCCC[C@H]1N1CCCC1,inactive: 2.73%
18,CC(C)/C=N\N=C(\N)N[N+](=O)[O-],inactive: -2.24%
19,CC1(CBr)Cn2c(nc3ccccc3c2=O)S1 (configuration not stated),inactive: 1.76%
20,CCC1=CC2Cc3nc4ccc(Cl)cc4c(N)c3C(C1)C2 (configuration not stated),inactive: 1.19%
21,O=P1(Nc2ccccn2)COc2ccccc2OC1,inactive: -2.39%
22,CCOP(=O)(NC(=NC(C)c1ccccc1)NC(C)c1ccccc1)OCC (configuration not stated),inactive: -3.64%
23,CCOP(=O)(Nc1ccc(C)cn1)OCC,inactive: 0.8%
24,Clc1n[nH]nc1-c1nn[nH][15n]1,inactive: -6.94%

# — PubChem BioAssay AID504411 (The Scripps Research Institute Molecular Screening Center, 2011)
